Laboratory results published in PMC12557380, “Optimization of 2,8-Diaryl-1,5-naphthyridines as Plasmodium falciparum Phosphatidylinositol 4‑Kinase Inhibitors with Improved ADME Profiles and In Vivo Efficacy” (Journal of Medicinal Chemistry, 2025).
Where “and” joins values, the source holds several entries; their conditions need not be identical. Equal entries are not always repeated.

Tests used:
[1] = test system: P. falciparum PI4K cKD line
in vitro = conditions: human, Caco-2

In the case of `Cn1ccc(-c2ccc3nccc(-c4cccc(S(C)(=O)=O)c4)c3n2)cc1=O` [Compound 19, 1-Methyl-4-[8-(3-methylsulfonylphenyl)-1,5-naphthyridin-2-yl]pyridin-2-one], the fold shift [1] was 9.3 and 8.0 and 7.7 and the efflux ratio (in vitro) was 2.3.
With `CS(=O)(=O)c1cccc(-c2ccnc3ccc(N4CCC(O)CC4)nc23)c1` [Compound 21, 1-[8-(3-Methylsulfonylphenyl)-1,5-naphthyridin-2-yl]piperidin-4-ol] the fold shift [1] was 6.0 and 6.6 and 5.5, the “fold decrease in IC50 under the knockdown condition” value ([1]; no aTc vs aTc) was 6.0 fold and the efflux ratio (in vitro) was 1.2.
